What is called IC50 is the point on the concentration scale where inhibition reaches its midpoint.

Chains of the proteins cited; added tags and fusions are not shown. Residues count along the entry.
UniProt P27338, 2-520: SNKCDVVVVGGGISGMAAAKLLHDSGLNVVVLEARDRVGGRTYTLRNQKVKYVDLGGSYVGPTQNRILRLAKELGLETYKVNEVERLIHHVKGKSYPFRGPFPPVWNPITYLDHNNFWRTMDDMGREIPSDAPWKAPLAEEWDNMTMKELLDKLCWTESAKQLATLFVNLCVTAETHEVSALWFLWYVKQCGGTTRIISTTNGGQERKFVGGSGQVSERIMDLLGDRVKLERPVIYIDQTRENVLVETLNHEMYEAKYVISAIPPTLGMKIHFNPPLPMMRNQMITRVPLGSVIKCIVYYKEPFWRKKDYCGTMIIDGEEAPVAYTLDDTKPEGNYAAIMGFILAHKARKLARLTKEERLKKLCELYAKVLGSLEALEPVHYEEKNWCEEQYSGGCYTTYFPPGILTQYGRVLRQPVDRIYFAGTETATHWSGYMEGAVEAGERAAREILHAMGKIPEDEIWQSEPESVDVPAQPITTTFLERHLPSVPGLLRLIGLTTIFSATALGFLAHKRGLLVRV
UniProt P21397, whole entry: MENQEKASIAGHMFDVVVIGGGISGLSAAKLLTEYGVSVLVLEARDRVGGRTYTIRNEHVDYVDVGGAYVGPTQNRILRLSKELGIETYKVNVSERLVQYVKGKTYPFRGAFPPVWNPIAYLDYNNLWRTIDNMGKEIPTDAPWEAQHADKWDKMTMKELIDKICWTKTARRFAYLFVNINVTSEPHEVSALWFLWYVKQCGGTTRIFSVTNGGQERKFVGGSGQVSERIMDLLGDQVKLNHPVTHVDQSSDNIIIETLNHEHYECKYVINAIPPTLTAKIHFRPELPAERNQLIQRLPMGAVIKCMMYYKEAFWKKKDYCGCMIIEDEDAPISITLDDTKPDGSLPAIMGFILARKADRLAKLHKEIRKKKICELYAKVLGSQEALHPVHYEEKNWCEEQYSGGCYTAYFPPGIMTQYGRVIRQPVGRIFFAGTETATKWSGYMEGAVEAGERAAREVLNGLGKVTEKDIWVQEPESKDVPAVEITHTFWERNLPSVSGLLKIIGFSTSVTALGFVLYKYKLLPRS

Assay [1] has as its target T1, Monoamine oxidase B (Homo sapiens, UniProt P27338). The settings on record: log10 of the MAO-B IC50 in nM, sheet MAO B.
In assay [2] the test system is MAO-B vs MAO-A. Briefly: Selectivity index of ChEMBl reference structures (MAO-A and MAO-B IC50). The settings on record: for Selectivity: selectivity index calculated from ChEMBl IC50 values of MAO-A and MAO-B. The format is biochemical, human.
The target of assay [3] is T2, Monoamine oxidase A (Homo sapiens, UniProt P21397). The settings on record: log of IC50 in nM.
The target of assay [4] is T2, Monoamine oxidase A. The settings on record: human enzyme, ref ChEMBl database, cited from earlier work.
Assay [5] concerns the target T1, Monoamine oxidase B. The settings on record: read-out: IC50 values (MAO-B); cited from earlier work.

Several values for one entry are separate records, joined by “and”; a condition that tells them apart may be missing. Equal entries are not always repeated.

For `O=C(Nc1ccc(Cl)c(Cl)c1)c1ccc2[nH]ccc2c1` [CHEMBL3319268], the “log IC50” value in assay [1] was -0.644.

For the compound `CN1N=C(c2ccc(O)cc2O)CC1c1ccc(F)cc1` (stereo not shown) [CHEMBL2417749], the Selectivity in assay [2] is given as 1.653.

`O=c1c(O)c(-c2ccccc2)oc2cc(O)cc(O)c12` [CHEMBL309490, Galangin]: the Selectivity in assay [2] is 0.0356.

Turning to `O=C1/C(=C/c2ccc(O)cc2)Oc2cc(O)ccc21` [CHEMBL426110], the Selectivity in assay [2] is 0.1061 and 0.11.

On to `Cc1cccc(C)c1NC(=S)N/N=C/c1ccc(-n2nc3c(c2C)N(C)S(=O)(=O)c2ccccc2-3)cc1` [CHEMBL4174892], for which the “Selectivity index (IC50 A / IC50 B)” value in assay [2] (sheet Selectivity, ratio of MAO-A IC50 to MAO-B IC50) turned out to be 0.001637.

Take `Cn1ncc2cc(C(=O)Nc3ccc(F)c(Cl)c3)ccc21` [CHEMBL4061639]: the “log IC50, MAO A” value in assay [3] was -0.18. In assay [4], the “pChEMBL Value, MAO A” value is given as 9.18. Also, the IC50 in assay [4] (read-out: Standard Value (IC50), MAO A) was 0.661 nM.

`Cc1cc2c(nn1)-c1cc(OCCCC(F)(F)F)ccc1C2=O` [CHEMBL348961]: the “log IC50” value in assay [1] was -1.854.

For the compound `COc1ccc2c(c1)-c1nnc(-c3cccc(C(F)(F)F)c3)cc1C2=O` [CHEMBL209413], the “log IC50, MAO A” value in assay [3] is given as -1.

Consider `COc1ccc(-c2cc(=O)c3c(O)cc(O)cc3o2)cc1` [CHEMBL243664, Acacetin], for which the IC50 in assay [5] was 49 nM.

For the compound `COc1cc2c3c(nccc3c1)-c1ccccc1C2=O` [CHEMBL1651055], the “log IC50, MAO A” value in assay [3] is -0.08092.

Compound `NNCCc1ccccc1` [CHEMBL1089, PHENELZINE] registered a Selectivity index in assay [2] (MAO-A IC50 / MAO-B IC50 of ChEMBL reference structures) of 1.664.

Regarding `CN(C)c1ccc(/C=C2\Oc3cc(O)ccc3C2=O)cc1` [CHEMBL1946828], the Selectivity in assay [2] is recorded as 4.045.

`O=C1CC(O)Oc2ccc(OCc3cccc(Br)c3)cc21` (stereo not shown) [CHEMBL2062882]: the Selectivity in assay [2] is listed as 268.421.

As for `O=C(O)c1coc2ccccc2c1=O` [CHEMBL315361], the “log IC50” value in assay [1] is -1.319.

Values taken from PMC8929578, “In vitro and in silico evaluation of Ononis isoflavonoids as molecules targeting the central nervous system” (PLoS ONE, 2022).
